# In patent publication US9597314B2, “Beta-lactamylalkanoic acids for treating premenstrual disorders” (AZEVAN PHARMACEUTICALS, INC., priority 2005, dated 2017):
# Sequences of proteins named here, by UniProt entry; tags and fusion partners are left off.
# UniProt P37288, whole entry: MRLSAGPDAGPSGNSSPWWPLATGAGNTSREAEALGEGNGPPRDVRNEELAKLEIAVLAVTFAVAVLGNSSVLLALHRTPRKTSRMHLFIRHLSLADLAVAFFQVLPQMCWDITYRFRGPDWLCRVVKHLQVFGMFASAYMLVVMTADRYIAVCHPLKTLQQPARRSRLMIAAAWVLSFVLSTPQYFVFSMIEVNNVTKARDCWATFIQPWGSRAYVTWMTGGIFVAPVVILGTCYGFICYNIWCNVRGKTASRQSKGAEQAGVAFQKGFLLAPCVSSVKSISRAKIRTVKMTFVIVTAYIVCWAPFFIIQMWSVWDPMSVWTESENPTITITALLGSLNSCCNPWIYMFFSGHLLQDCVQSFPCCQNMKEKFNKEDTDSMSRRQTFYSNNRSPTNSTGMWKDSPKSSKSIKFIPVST
# Molecular target: V1a (Homo sapiens, UniProt P37288)
# Assay: Human vasopression V1a receptor binding assay
# Parameters: host or cells: CHO cells (hV1a cell line), whole adherent cells
# Settings: hV1a cell line (CHO)
# Protocol: Human vasopression V1a receptor binding assay. A cell line expressing the human V1a receptor in CHO cells (henceforth referred to as the hV1a cell line) was obtained from Dr. Michael Brownstein, NIMH, Bethesda, Md., USA. The hV1a cDNA sequence is described by Thibonnier et al., Journal of Biological Chemistry, 269, 3304-3310 (1994), and the expression method was the same as described by Morel et al. (1992). The hV1a cell line was grown in alpha-MEM with 10% fetal bovine serum and 250 ug/ml G418 (Gibco, Grand Island, N.Y., USA). For competitive binding assay, hV1a cells were plated into 6-well culture plate at 1:10 dilution from a confluency flask, and maintained in culture for at least two days. Culture medium was then removed, cells were washed with 2 ml binding buffer (25 mM Hepes, 0.25% BSA, 1×DMEM, PH=7.0). To each well, 990 μl binding buffer containing 1 nM 3H-AVP was added, and followed by 10 μl series diluted Example compounds dissolved in DMSO. […] 100 nM cold AVP (Sigma) was used to assess non-specific binding. Cells were incubated for 45 minutes at 37° C., assay mixture was removed and each well was washed three times with PBS (pH=7.4). 1 ml 2% SDS was added per well and plates were let sit for 30 minutes. […] Samples were counted in a liquid scintillation counter (Beckman LS3801). IC50 values were calculated by Prism Curve fitting software. […]
smiles,measurement,setting,value
"O=C(NCc1cccc(C(F)(F)F)c1F)[C@@H](CC(=O)N1CCC(N2CCCCC2)CC1)N1C(=O)[C@@H](N2C(=O)OC[C@@H]2c2ccccc2)[C@H]1/C=C/c1ccccc1 [Example 222, 2(R)-[[4-(Piperidinyl)piperidinyl]carbonylmethyl]-2-[3(S)-(4(S)-phenyloxazolidin-2-on-3-yl)-4(R)-(2-styryl)azetidin-2-on-1-yl]acetic acid N-(2-fluoro-3-trifluoromethylbenzyl)carboxamide]",IC50,"1 nM 3H-AVP, Table 17, read-out: V1a Binding Affinity (IC50 (nM))",1.83 nM
same,Ki,Table 18,1.13 nM
